The experiment concerns the target T1, human EP2 receptors (Homo sapiens, UniProt P43116).
T1 construct: cDNAs representing the complete open reading frames of the human EP2 and EP2 receptors; expressed in transfected cells
The experiment can be described thus: Scatchard analysis of specific [3H]PGE2 binding in 293-S transfectants (EP2 line). Conditions: read-out: Kd for PGE2 (EP2), 293-S line stably overexpressing recombinant human EP2, selected for compound screening.

By UniProt entry, the sequences of proteins in these tests, tags left out. Where a name states a change or a piece, a line headed by the entry shows the natural chain unless it says otherwise.
UniProt P43116: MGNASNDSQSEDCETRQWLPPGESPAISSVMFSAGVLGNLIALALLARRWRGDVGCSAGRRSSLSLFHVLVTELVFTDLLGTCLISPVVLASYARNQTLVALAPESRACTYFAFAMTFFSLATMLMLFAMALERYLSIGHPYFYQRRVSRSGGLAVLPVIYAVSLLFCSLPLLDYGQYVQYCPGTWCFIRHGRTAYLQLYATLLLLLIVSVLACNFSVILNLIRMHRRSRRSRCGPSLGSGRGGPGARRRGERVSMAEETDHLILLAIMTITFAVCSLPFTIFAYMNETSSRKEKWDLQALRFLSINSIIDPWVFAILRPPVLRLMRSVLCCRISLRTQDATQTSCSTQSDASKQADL

Turning to `CCCCC[C@H](O)/C=C/[C@H]1[C@H](O)CC(=O)[C@@H]1C/C=C\CCCC(=O)O` [PGE2, Prostaglandin E2], the Kd was 0.012 µM.

In general, Kd refers to the constant that tells how readily two partners part at equilibrium.

The record behind these values is patent US6531485B2, “Prostaglandin agonists” (priority 1997, dated 2003).
